Literature values in patent US20050003431A1, “Monovalent, multivalent, and multimeric MHC binding domain fusion proteins and conjugates, and uses therefor” (priority 1996, published 2005).

By UniProt entry, the sequences of proteins in these tests, tags left out. Residues count along the entry.
UniProt P01903, 26-254 limits assumed: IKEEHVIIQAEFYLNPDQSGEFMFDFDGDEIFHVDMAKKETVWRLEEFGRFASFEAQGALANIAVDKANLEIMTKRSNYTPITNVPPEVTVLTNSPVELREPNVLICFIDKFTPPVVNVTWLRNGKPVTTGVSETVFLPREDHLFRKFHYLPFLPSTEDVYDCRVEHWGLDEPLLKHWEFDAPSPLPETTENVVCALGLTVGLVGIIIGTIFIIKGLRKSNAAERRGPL
UniProt P01911, 30-266 limits assumed: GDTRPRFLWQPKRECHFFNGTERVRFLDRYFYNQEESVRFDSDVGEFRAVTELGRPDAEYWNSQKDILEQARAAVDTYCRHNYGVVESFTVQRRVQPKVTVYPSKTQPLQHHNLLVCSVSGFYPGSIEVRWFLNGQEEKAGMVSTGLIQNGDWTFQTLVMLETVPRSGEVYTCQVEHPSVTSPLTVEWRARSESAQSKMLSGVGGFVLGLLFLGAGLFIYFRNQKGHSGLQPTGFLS

Biological target: HLA-DR2 (encoded by the DRA, DRB1*1501 genes) (Homo sapiens, UniProt P01903+P01911)
Settings: cited from earlier work

CC[C@H](C)[C@H](NC(=O)[C@H](CC(N)=O)NC(=O)[C@H](CCCCN)NC(=O)[C@H](Cc1ccccc1)NC(=O)[C@H](Cc1ccccc1)NC(=O)[C@H](Cc1cnc[nH]1)NC(=O)[C@@H](NC(=O)[C@@H](NC(=O)[C@@H]1CCCN1C(=O)[C@H](CC(N)=O)NC(=O)[C@@H](N)CCC(=O)O)C(C)C)C(C)C)C(=O)N[C@H](C(=O)N[C@H](C(=O)N1CCC[C@H]1C(=O)N[C@@H](CCCNC(=N)N)C(=O)O)[C@@H](C)O)C(C)C
affinity for purified DR2: high affinity
